Experimental data as given in PubChem BioAssay AID2330 (Broad Institute, 2010).
The entries are a selection whose mix differs from that of the whole data set. Some salts or complexes appear as unconnected parts, following the source record. Active and inactive are the calls of the source. Cut-off read from the data, not from the text of the source: active = inhibition above about 80%; inconclusive = no clear call, values can overlap the other calls; inactive = below that.

Assay: NOMO-1 AML cell viability reduction, primary screen, STK33 inhibitor project, CellTiter-Glo luminescence (AID 2330)
Settings: NOMO-1 AML viability, 72 h, stronger effect = higher value, concentration not given here
In the case of `C/C1=C2N=C(/C=C3N=C(/C(C)=C4\[N-][C@@](C)([C@@H]5N=C1[C@](C)(CCC(=O)NCC(C)OP(=O)(O)O[C@@H]1[C@H](O)[C@H](n6cnc7cc(C)c(C)cc76)O[C@H]1CO)[C@H]5CC(N)=O)[C@@](C)(CC(N)=O)[C@@H]4CCC(N)=O)[C@@](C)(CC(N)=O)[C@@H]\3CCC(N)=O)C(C)(C)[C@@H]/2CCC(N)=O.[C-]#N.[Co+3]` (some centres not stated), the inhibition is reported as inactive: 16.4%.
For `CC(Cc1ccc(O)cc1)NCC(O)c1cc(O)cc(O)c1` (configuration not stated), the inhibition was inactive: -10%.
In the case of `O=C(OC1CN2CCC1CC2)c1ccc(Cl)cc1` (configuration not stated), the inhibition is reported as inactive: 13.8%.
With `Cc1ccc(C(=O)OC2CN3CCC2CC3)cc1` (configuration not stated) the inhibition was inactive: -8.04%.
For `O=P1(Nc2ccccn2)COc2ccccc2OC1`, the inhibition was inactive: 21.7%.
In the case of `COc1cc2c(cc1NP(C)(=O)Oc1ccccc1)oc1ccccc12` (configuration not stated), the inhibition is reported as inactive: 62.5%.
In the case of `CN(C(=O)Cc1ccc(Cl)c(Cl)c1)[C@H]1CCCC[C@@H]1N1CCCC1`, the inhibition is reported as inactive: 25.7%.
